Experimental findings from publication PMC3499949 (Journal of medicinal chemistry, 2012) are described below.

Sequences of proteins named here, by UniProt entry; tags and fusion partners are left off. A change or cut given only in a name is not applied to a line headed by its entry.
UniProt P41145: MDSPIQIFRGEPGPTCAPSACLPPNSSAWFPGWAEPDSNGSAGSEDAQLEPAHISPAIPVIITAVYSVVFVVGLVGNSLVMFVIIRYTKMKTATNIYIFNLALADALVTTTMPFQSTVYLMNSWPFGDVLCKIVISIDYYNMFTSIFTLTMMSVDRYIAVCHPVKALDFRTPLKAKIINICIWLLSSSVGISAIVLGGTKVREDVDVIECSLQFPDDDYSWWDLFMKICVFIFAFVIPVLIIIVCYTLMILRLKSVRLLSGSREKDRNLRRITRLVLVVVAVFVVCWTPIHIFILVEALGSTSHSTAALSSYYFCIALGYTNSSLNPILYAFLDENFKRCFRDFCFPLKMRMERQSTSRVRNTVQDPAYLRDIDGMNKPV

The target in assay [1] is T1, hKOR (Homo sapiens, UniProt P41145). Nature of the assay: [35S]GTP-γ-S binding assay, agonist stimulation, KOR. In kind it is biochemical. The settings on record: stimulation of [35S]GTP-γ-S binding; no stim = no stimulation at 10 µM.
For assay [2], the target named is T1, hKOR. Nature of the assay: [35S]GTP-γ-S binding assay, antagonist shift design, KOR. In kind it is biochemical. For orientation: Binding of GTPγS marks nucleotide exchange on a G protein.

With `Oc1ccc2c3c1O[C@H]1c4ncc(-c5ccc(Cl)cc5)cc4C[C@@]4(OCCCc5ccccc5)[C@@H](C2)N(CC2CC2)CC[C@]314` [17d, 5′-(4-Chlorophenyl)-17-(cyclopropylmethyl)-6,7-didehydro-4,5α-epoxy-3-hydroxy-14-(3-phenylpropoxy)pyrido[2′,3′:6,7]morphinan], at hKOR [1], the “KOR EC50” value is “no stim”. Besides, the Kb on hKOR [2] was 1.35 ± 0.28 nM.

The term Kb denotes the affinity of an antagonist, worked out from how it opposes an agonist.
